{"source": "paper PMC3124071", "about": "(Journal of medicinal chemistry, 2011)", "origin": "cited, not measured here", "tested_on": "hURAT1", "settings": "read-out: IC50 via MDCK-hURAT1; MDCK-hURAT1 ref 29; cited from earlier work", "data": [{"compound": "CCc1oc2cc(O)ccc2c1C(=O)c1cc(Br)c(O)c(Br)c1", "note": "[Compound 8, (3,5-dibromo-4-hydroxyphenyl)(2-ethyl-6-hydroxy-benzofuran-3-yl)methanone]", "values": [{"measurement": "IC50", "value": 200, "unit": "nM"}]}]}
